According to PubChem BioAssay AID1285 (Columbia University Molecular Screening Center, 2008):
This is a selection; strong and weak results do not stand in their true shares. Active and inactive are the calls of the source.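 How the source made its calls: active means inhibition above a set limit, derived from the sample mean plus 3 SD (cut at about 45% in these data); inconclusive means one replicate passes the limit while the other fails; inactive means the rest.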

assay: inhibitors of APP translation via 5'UTR reporter, primary screen, APP 5'UTR luciferase, SH-SY5Y cells (AID 1285); details: SH-SY5Y APP 5'UTR-luciferase reporter, luminescence; at 2 µM; hits give high values

SMILES | inhibition
CCOC(=O)c1ccc(NP(C)(=O)Oc2ccc(Cl)cc2)cc1 (stereo not drawn) | inactive: -3.8%
CP(=O)(OC12CC3CC(CC(C3)C1)C2)OC12CC3CC(CC(C3)C1)C2 | inactive: 10.3%
CCN(CC)CC(O)COC(=O)C(O)(c1ccccc1)C1CCCCC1 (stereo not drawn) | inactive: 1.8%
COc1ccc(OP(C)(=O)Nc2ccc(Br)cc2)cc1 (stereo not drawn) | inactive: -10.9%
COc1ccccc1OP(C)(=O)Nc1c(C)n(C)n(-c2ccccc2)c1=O (stereo not drawn) | inactive: -4.2%
CP(=O)(Oc1ccccc1)N1CCOC1=O (stereo not drawn) | inactive: -1.7%
CCc1ccc(OP(C)(=O)Nc2cccnc2)cc1 (stereo not drawn) | inactive: -14.2%
CC(C)(C)c1ccc(OP(C)(=O)O)cc1 | inactive: 8.4%
COc1ccccc1OP(C)(=O)Nc1ccccc1Br (stereo not drawn) | inactive: -0.6%
CP(=O)(Nc1ccc(Cl)cc1)Oc1ccc(F)cc1 (stereo not drawn) | inactive: 1.9%
CN(C)C(=O)c1c([N+](=O)[O-])cc([N+](=O)[O-])cc1[N+](=O)[O-] | inactive: 7.9%
COc1ccc(OP(C)(=O)Nc2ccccn2)cc1 (stereo not drawn) | inactive: 2.4%
CN(C)CCOC(=O)C(O)(c1ccccc1)C1CCCC1 (stereo not drawn) | inactive: 9.2%
Cc1c(NP(C)(=O)Oc2ccc(C(C)C)cc2)c(=O)n(-c2ccccc2)n1C (stereo not drawn) | inactive: -5.5%
CP(=O)(Nc1ccccn1)Oc1ccccc1 (stereo not drawn) | inactive: 8.1%
COc1ccccc1OP(C)(=O)Nc1ccc(C)cc1C (stereo not drawn) | inactive: -10.3%
CCc1ccc(OP(C)(=O)O)cc1 | inactive: 7.1%
Cc1cc(C)cc(OP(C)(=O)Nc2cccc(C(F)(F)F)c2)c1 (stereo not drawn) | inactive: 15.2%
COc1ccccc1OP(C)(=O)Nc1ccc(C)c(C)c1 (stereo not drawn) | inactive: -21.4%
COc1ccc(OP(C)(=O)Nc2ccccc2Br)cc1 (stereo not drawn) | inactive: -2%
Cc1nc2ccc3ccccc3c2o1.O=[N+]([O-])c1cc([N+](=O)[O-])c(O)c([N+](=O)[O-])c1 | inactive: -6.7%
CP(=O)(OCCOc1ccccc1)OCCOc1ccccc1 | inactive: 7.1%
CP(=O)(Nc1ccc(Cl)cc1Cl)Oc1ccccc1 (stereo not drawn) | inactive: -2.4%

SMILES | inhibition
CCOC(=O)c1ccc(NP(C)(=O)Oc2ccc(F)cc2)cc1 (stereo not drawn) | inactive: -18.9%
COc1ccc(OP(C)(=O)Nc2ccc(SC(F)(F)F)cc2)cc1 (stereo not drawn) | inactive: -13.5%
CCN(CC)CCCOC(=O)C(O)(c1ccccc1)C1CCCCC1 (stereo not drawn) | inactive: 8.8%
CP(=O)(Nc1ccccc1)Oc1ccc(F)cc1 (stereo not drawn) | inactive: 7%
CP(=O)(Nc1ccccc1F)Oc1ccccc1 (stereo not drawn) | inactive: 3.2%
CC(C)c1ccc(OP(C)(=O)Nc2ccc(SC(F)(F)F)cc2)cc1 (stereo not drawn) | inactive: -11%
O=C(OCCN1CCN(CCOCc2ccccc2)CC1)C(O)(c1ccccc1)c1ccccc1 | inactive: 6.3%
CP(=O)(Nc1ccc2c(c1)OCCO2)Oc1ccccc1 (stereo not drawn) | inactive: 5.7%
Cc1ccccc1NP(C)(=O)Nc1ccccc1C | inactive: 7.8%
COc1ccc(OP(C)(=O)Nc2cccc(Br)c2)cc1 (stereo not drawn) | inactive: -1.7%
CN(C)CCOC(=O)C(O)(c1ccccc1)C1CCCCC1 (stereo not drawn) | inactive: -6.3%
COc1ccc(NP(C)(=O)Oc2ccccc2OC)cc1 (stereo not drawn) | inactive: 15.8%
O=[N+]([O-])c1cc([N+](=O)[O-])c(NCC2CCS(=O)(=O)C2)c([N+](=O)[O-])c1 (stereo not drawn) | inactive: 7%
COc1ccccc1OP(C)(=O)Nc1c(C)cccc1C (stereo not drawn) | inactive: 13.5%
CN1CCCCC1COC(=O)C1(O)c2ccccc2CCc2ccccc21 (stereo not drawn) | inactive: 8.7%
CP(=O)(Nc1ccc(SC(F)(F)F)cc1)Oc1ccccc1 (stereo not drawn) | inactive: -19.6%
CCCOc1ccc(NP(C)(=O)Oc2ccc(Cl)cc2)cc1 (stereo not drawn) | inactive: -25.1%
O=[N+]([O-])c1cc([N+](=O)[O-])c(-n2nnc3ccccc32)c([N+](=O)[O-])c1 | inactive: 36%
Cc1nc2ccc3ccccc3c2s1.O=[N+]([O-])c1cc([N+](=O)[O-])c(O)c([N+](=O)[O-])c1 | inactive: 1.9%
CCOC(=O)c1ccc(NP(C)(=O)Oc2cc(C)cc(C)c2)cc1 (stereo not drawn) | inactive: -2.1%
Cc1cc(C)cc(OP(C)(=O)Nc2ccc(C)cc2C)c1 (stereo not drawn) | inactive: -6.9%
Cc1ccc(C)c(NP(C)(=O)Oc2ccccc2)c1 (stereo not drawn) | inactive: -1.7%
CP(=O)(Nc1cccc(Br)c1)Oc1ccccc1 (stereo not drawn) | inactive: 21.7%

SMILES | inhibition
Cc1cc(C)cc(OP(C)(=O)Nc2ccccn2)c1 (stereo not drawn) | inactive: 0%
CC1=NCCc2c1[nH]c1ccccc21.O=[N+]([O-])c1cc([N+](=O)[O-])c(O)c([N+](=O)[O-])c1 | inactive: -6%
O=[N+]([O-])c1ccc2c(c1)C=Nc1ccccc1O2 | inactive: -2%
CC(C)(C)c1ccc(OP(C)(=O)Nc2ccc(SC(F)(F)F)cc2)cc1 (stereo not drawn) | inactive: -5.6%
Cc1cccc(C)c1OP(C)(N)=O (stereo not drawn) | inactive: -10.6%
COc1ccccc1OP(C)(=O)Nc1ccc(C)cc1 (stereo not drawn) | inactive: -15.2%
Cc1ccc(NP(C)(=O)Oc2ccccc2)c(C)c1 (stereo not drawn) | inactive: 12%
CCOC(=O)c1ccc(NP(C)(=O)Oc2ccccc2)cc1 (stereo not drawn) | inactive: -2.6%
Cc1cc(C)cc(OP(C)(N)=O)c1 (stereo not drawn) | inactive: 15.6%
COc1ccccc1OP(C)(=O)Nc1cc(Cl)ccc1C (stereo not drawn) | inactive: -9.6%
COc1ccc(OP(C)(=O)Nc2cccc(F)c2)cc1 (stereo not drawn) | inactive: -7.4%
CCN(CC)CCCOC(=O)C(O)(c1ccccc1)c1ccccc1 | inactive: -5.8%
Cc1cccc(C)c1OP(C)(=O)Nc1ccc(SC(F)(F)F)cc1 (stereo not drawn) | inactive: -5%
CP(=O)(Oc1ccccc1)OC(c1ccccc1)C(F)(F)F (stereo not drawn) | inactive: -13.5%
CP(=O)(NC(=O)Nc1ccccc1)Oc1ccccc1 (stereo not drawn) | inactive: -10.1%
Cc1cc(C)cc(OP(C)(=O)Nc2ccc(SC(F)(F)F)cc2)c1 (stereo not drawn) | inactive: -8.4%
CCOC(=O)c1ccc(NP(C)(=O)Oc2ccc(OC)cc2)cc1 (stereo not drawn) | inactive: 5.9%
CCOP(C)(=S)SCC(=O)NC(C)C(=O)O (stereo not drawn) | inactive: 3.7%
CP(=O)(Nc1ccccn1)Oc1ccc(Cl)cc1 (stereo not drawn) | inactive: 9.6%
CP(=S)(Nn1cnnc1)Oc1ccccc1 (stereo not drawn) | inactive: -3.7%
CP(=O)(Nc1ccccc1Br)Oc1ccccc1 (stereo not drawn) | inactive: 2.2%
COc1ccccc1OP(C)(=O)Nc1ccccc1 (stereo not drawn) | inactive: 1.8%
